Test results published in EP4653451A1, “POLYPEPTIDE COMPOUND AND USE THEREOF” (Chengdu New Radiomedicine Technology Co., Ltd., priority 2023, dated 2024).

Chains of the proteins cited; added tags and fusions are not shown.
UniProt P27487, whole entry: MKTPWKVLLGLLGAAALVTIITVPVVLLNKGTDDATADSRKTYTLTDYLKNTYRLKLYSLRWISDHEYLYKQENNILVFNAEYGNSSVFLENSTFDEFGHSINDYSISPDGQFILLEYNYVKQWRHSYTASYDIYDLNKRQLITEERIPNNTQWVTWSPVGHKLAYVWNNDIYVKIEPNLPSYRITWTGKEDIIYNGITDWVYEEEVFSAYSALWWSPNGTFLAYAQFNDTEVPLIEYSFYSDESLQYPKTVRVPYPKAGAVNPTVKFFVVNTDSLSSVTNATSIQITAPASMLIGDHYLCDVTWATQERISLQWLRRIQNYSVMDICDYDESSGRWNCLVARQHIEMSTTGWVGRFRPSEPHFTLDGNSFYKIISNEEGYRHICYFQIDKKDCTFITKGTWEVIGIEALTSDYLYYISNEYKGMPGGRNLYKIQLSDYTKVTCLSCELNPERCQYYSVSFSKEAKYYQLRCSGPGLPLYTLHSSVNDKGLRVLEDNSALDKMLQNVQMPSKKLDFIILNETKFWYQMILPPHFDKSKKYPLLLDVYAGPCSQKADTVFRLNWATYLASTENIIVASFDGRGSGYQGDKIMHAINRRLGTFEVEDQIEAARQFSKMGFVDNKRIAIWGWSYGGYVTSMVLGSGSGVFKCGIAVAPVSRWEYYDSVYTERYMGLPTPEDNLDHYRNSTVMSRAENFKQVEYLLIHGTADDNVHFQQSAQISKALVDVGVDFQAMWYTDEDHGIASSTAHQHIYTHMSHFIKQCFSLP

Key:
[1] = target: T1, human recombinant FAP protein (Homo sapiens, UniProt Q12884); assay: Inhibitory activity against FAP protease activity (Z-Gly-Pro-AMC fluorescence); assay type: biochemical; settings: read-out: FAP IC50; 125 pM FAP working solution, 90 min at room temperature
T1 construct: purchased Acrobiosystems FAP-H82Q6
T1 sequence (Q12884 1-760): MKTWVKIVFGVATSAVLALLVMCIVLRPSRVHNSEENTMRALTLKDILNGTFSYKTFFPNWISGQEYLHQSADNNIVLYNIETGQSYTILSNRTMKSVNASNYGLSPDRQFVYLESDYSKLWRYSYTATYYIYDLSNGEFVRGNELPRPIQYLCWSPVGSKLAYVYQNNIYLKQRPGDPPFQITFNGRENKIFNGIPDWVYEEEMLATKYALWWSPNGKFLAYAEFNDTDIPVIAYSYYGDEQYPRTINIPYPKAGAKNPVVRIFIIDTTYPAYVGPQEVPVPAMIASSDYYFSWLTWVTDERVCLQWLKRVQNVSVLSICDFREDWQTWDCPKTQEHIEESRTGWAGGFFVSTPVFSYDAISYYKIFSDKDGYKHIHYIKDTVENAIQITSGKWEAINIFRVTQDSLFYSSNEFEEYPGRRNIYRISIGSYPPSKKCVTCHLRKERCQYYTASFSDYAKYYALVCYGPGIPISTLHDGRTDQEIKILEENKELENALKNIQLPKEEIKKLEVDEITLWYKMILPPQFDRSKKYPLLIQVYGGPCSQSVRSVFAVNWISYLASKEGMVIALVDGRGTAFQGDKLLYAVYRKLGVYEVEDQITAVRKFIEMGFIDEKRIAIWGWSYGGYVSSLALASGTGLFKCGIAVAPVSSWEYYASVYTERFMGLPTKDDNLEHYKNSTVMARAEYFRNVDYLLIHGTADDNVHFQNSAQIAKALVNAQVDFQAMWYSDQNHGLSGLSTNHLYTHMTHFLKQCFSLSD
Procedure: The human recombinant FAP protein (Acrobiosystems, FAP-H82Q6) was diluted to a 125 pM FAP working solution with an assay buffer (50 mM Tris-HCl, 1 M NaCl, 1 mg/mL BSA, pH 7.5), and the FAP substrate (Z-Gly-Pro-AMC (LEONBIO, 68542-93-8)) was diluted to a 150 µM substrate working solution with the assay buffer. 40 µl of FAP working solution and 20 µl of compounds at different concentrations (4-fold dilution) were taken, then 40 µl of substrate working solution was added, and the mixture was uniformly mixed on a shaker at room temperature for 1 min. The uniformly mixed mixture was reacted at room temperature in the dark for 90 min. The fluorescence value Ex = 380 nm/Em = 460 nm was read by using a microplate reader. The original data was saved, and the IC50 value of the compound was obtained by using the original data or the Inhibition% via calculation and analyzing the data with Graphpad PRISM.

[2] = target: T2, human recombinant DPP4 protein (Homo sapiens, UniProt P27487); assay: Inhibitory activity against DPP4 protease activity (H-Gly-Pro-AMC fluorescence); assay type: biochemical
T2 construct: purchased Acrobiosystems DP4-H5211
Procedure: The human recombinant DPP4 protein (Acrobiosystems, DP4-H5211) was formulated into a 125 pM working solution with an assay buffer (20 mM Tris-HCl, 100 mM NaCl), and the DPP4 substrate (H-Gly-Pro-AMC.HBr (LEONBIO, 115035-46-6)) was diluted to a 250 µM DPP4 substrate working solution with the assay buffer. 40 µl of DPP4 working solution and 20 µl of compounds at different concentrations (4-fold dilution) were taken, then 40 µl of DPP4 substrate working solution was added, and the mixture was uniformly mixed on a shaker at room temperature for 1 min. The uniformly mixed mixture was reacted at room temperature in the dark for 90 min. Reading was made by microplate reader at excitation and emission wavelengths of 380 nm and 460 nm. The original data was saved, and the IC50 value of the compound was obtained by analyzing the data with Graphpad PRISM.

Substance: Hex-Cys-Pro-Pro-Thr-Gln-Phe-Cys-CH2NH-cyclopentacarboxylic acid (Cys bridge TBMB (DOTA-AET)) trifluoroacetate [Compound 14]
- IC50 [1]: 0.28 nM
- IC50 ([2]; read-out: DPP4 IC50; 125 pM DPP4 working solution, 90 min at room temperature): > 10000 nM

Substance: Hex-Cys-Pro-Pro-Thr-Gln-Phe-Cys-CH2NHAc (Cys bridge TBMB (DOTA-AET)) trifluoroacetate [Compound 10]
- IC50 [1]: 0.23 nM
- IC50 ([2]; 125 pM DPP4 working solution, 90 min at room temperature; read-out: DPP4 IC50): > 10000 nM

Read-outs that look alike come from different tables or passages of the source.
